Among the targets are human μOR (Homo sapiens, UniProt P35372); μOR Y326^7.43F mutant (Homo sapiens, UniProt P35372, Y328F); μOR Q124^2.60A mutant (Homo sapiens, UniProt P35372, Q126A).
Common to all, as to assay type: cell-based

Sequences of proteins named here, by UniProt entry; tags and fusion partners are left off.
UniProt P35372, whole entry: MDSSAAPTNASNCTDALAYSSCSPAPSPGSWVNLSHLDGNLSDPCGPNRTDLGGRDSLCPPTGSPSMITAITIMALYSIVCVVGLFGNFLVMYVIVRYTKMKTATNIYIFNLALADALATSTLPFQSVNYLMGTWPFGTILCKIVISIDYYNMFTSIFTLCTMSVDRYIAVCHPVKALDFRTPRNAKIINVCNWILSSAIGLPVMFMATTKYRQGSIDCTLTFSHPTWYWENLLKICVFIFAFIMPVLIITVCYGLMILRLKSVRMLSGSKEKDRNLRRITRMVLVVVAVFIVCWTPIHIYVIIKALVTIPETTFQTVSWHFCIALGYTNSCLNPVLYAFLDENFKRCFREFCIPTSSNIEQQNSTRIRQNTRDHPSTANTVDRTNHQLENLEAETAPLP
UniProt P35372, whole entry Y328F: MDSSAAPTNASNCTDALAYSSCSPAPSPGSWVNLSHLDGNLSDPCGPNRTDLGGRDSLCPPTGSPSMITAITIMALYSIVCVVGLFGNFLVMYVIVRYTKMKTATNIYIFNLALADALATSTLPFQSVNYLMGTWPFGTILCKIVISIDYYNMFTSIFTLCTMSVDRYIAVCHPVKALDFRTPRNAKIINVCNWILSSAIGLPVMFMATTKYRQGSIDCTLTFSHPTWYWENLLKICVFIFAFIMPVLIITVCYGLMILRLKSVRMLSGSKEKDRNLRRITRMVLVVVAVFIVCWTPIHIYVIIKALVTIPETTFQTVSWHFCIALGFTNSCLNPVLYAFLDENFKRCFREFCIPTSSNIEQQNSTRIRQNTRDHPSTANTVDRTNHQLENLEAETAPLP
UniProt P35372, whole entry Q126A: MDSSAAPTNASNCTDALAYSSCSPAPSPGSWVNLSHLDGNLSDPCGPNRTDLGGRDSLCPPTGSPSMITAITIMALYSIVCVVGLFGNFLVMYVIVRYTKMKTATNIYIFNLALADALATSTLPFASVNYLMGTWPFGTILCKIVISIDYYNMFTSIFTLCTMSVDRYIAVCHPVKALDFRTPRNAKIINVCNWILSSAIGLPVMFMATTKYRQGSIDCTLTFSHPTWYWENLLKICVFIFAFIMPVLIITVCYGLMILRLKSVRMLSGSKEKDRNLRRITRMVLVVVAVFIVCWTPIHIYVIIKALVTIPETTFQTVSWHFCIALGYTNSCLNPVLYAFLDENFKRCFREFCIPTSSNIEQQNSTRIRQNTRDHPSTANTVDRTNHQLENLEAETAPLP

In the case of “(D-Ala^2, N-MePhe^4, Gly-ol)-enkephalin [DAMGO]”, on human μOR, the “potency spread across G protein subtypes” value is listed as ~ 2 fold. The “reduction of maximal Gi1 activation by the Y326F mutation” value at μOR Y326^7.43F mutant worked out at 36%. The “reduction of potency by the Q124A mutation” value at μOR Q124^2.60A mutant was determined as 100 fold.

For the origin of these results see publication PMC11098091 (Nature chemical biology, 2022).
